These are literature values, as cited in patent US12377133B2, “Dry pharmaceutical formulations of CNP conjugates” (Ascendis Pharma Growth Disorders A/S, priority 2019, dated 2025).

For the data set the following is noted: after intravenous administration.

Regarding C-type Natriuretic Peptide [CNP], the in vivo half-life is on record as 2 min.
